Measured values taken from patent US8268821B2, “Methods and compositions” (priority 2003, dated 2012).
Like-named read-outs stand apart in the source and are kept apart here. Marks after values point to notes of the source that are not given here.

Tested on: male Wistar rats
Conditions: for doses that cause sedation: ip, rotarod test

CCOC(=O)Nc1ccc(NCc2ccc(F)cc2)nc1N [flupirtine]
Lowest run time (s) mean (flupirtine 5 mg/kg ip alone, cut-off 2 minutes, saline control 119.2): 118.4 s | Lowest run time (s) mean (flupirtine 10 mg/kg ip alone, saline control 119.2): 107.7 s | Lowest run time (s) mean (flupirtine 20 mg/kg ip alone, p < 0.05 vs saline control 119.2): 58.1* s | doses that cause sedation: greater than 10 mg/kg

CN1CC[C@]23c4c5ccc(O)c4O[C@H]2[C@@H](O)C=C[C@H]3[C@H]1C5 [morphine]
doses that cause sedation: greater than 3.2 mg/kg | Lowest run time (s) mean (morphine 0.4 mg/kg ip alone, saline control 119.2): 120 s | Lowest run time (s) mean (morphine 0.8 mg/kg ip alone, saline control 119.2): 120 s | Lowest run time (s) mean (morphine 1.6 mg/kg ip alone, saline control 119.2): 110.4 s | Lowest run time (s) mean (morphine 3.2 mg/kg ip alone, saline control 119.2): 99.6 s | Lowest run time (s) mean (morphine 6.4 mg/kg ip alone, p < 0.05 vs saline control 119.2): 60* s
